The NIST ThermoML archive (doi:10.1016/j.tca.2012.05.036)
Numbers after ± are expanded uncertainties.

Key:
[1] = relative permittivity at zero frequency (dimensionless); xn = mol fraction of the nth substance listed; settings: 101 kPa, Liquid, Parallel plate capacitor
[2] = refractive index (Na D-line) (dimensionless); xn = mol fraction of the nth substance listed; settings: 101 kPa, Liquid, Standard Abbe refractometry

CCCCOCCCC [dibutyl ether] + CCCCCO
Settings | refractive index, 293.15 K | refractive index, 298.15 K | refractive index, 303.15 K | relative permittivity at zero frequency, 288.15 K | relative permittivity at zero frequency, 293.15 K | relative permittivity at zero frequency, 298.15 K | relative permittivity at zero frequency, 303.15 K | relative permittivity at zero frequency, 308.15 K
[1], x2 = 0.1104 | – | – | – | 3.61 ± 0.22 | 3.556 ± 0.21 | 3.502 ± 0.21 | 3.449 ± 0.21 | 3.399 ± 0.2
[1], x2 = 0.1877 | – | – | – | 4.008 ± 0.24 | 3.939 ± 0.24 | 3.871 ± 0.23 | 3.805 ± 0.23 | 3.741 ± 0.22
[1], x2 = 0.3047 | – | – | – | 4.628 ± 0.28 | 4.528 ± 0.27 | 4.431 ± 0.27 | 4.338 ± 0.26 | 4.249 ± 0.26
[1], x2 = 0.4064 | – | – | – | 5.426 ± 0.33 | 5.285 ± 0.32 | 5.147 ± 0.31 | 5.015 ± 0.3 | 5.018 ± 0.3
[1], x2 = 0.5075 | – | – | – | 6.482 ± 0.39 | 6.281 ± 0.38 | 6.087 ± 0.36 | 5.901 ± 0.35 | 5.725 ± 0.34
[1], x2 = 0.6034 | – | – | – | 7.776 ± 0.47 | 7.505 ± 0.45 | 7.242 ± 0.43 | 6.992 ± 0.42 | 6.752 ± 0.41
[1], x2 = 0.7038 | – | – | – | 9.464 ± 0.57 | 9.112 ± 0.55 | 8.768 ± 0.53 | 8.437 ± 0.51 | 8.123 ± 0.49
[1], x2 = 0.8018 | – | – | – | 11.446 ± 0.69 | 11.011 ± 0.66 | 10.583 ± 0.64 | 10.169 ± 0.61 | 9.771 ± 0.59
[1], x2 = 0.9048 | – | – | – | 13.846 ± 0.83 | 13.328 ± 0.8 | 12.812 ± 0.77 | 12.313 ± 0.74 | 11.828 ± 0.71
[2], x2 = 0.1104 | 1.4001 ± 0.0005 | 1.3976 ± 0.0005 | 1.3958 ± 0.0005 | – | – | – | – | –
[2], x2 = 0.1877 | 1.4011 ± 0.0005 | 1.3985 ± 0.0005 | 1.3968 ± 0.0005 | – | – | – | – | –
[2], x2 = 0.3047 | 1.4021 ± 0.0005 | 1.3995 ± 0.0005 | 1.3979 ± 0.0005 | – | – | – | – | –
[2], x2 = 0.4064 | 1.4031 ± 0.0005 | 1.4008 ± 0.0005 | 1.3989 ± 0.0005 | – | – | – | – | –
[2], x2 = 0.5075 | 1.4042 ± 0.0005 | 1.4017 ± 0.0005 | 1.4001 ± 0.0005 | – | – | – | – | –
[2], x2 = 0.6034 | 1.4053 ± 0.0005 | 1.4029 ± 0.0005 | 1.4013 ± 0.0005 | – | – | – | – | –
[2], x2 = 0.7038 | 1.4065 ± 0.0005 | 1.4041 ± 0.0005 | 1.4026 ± 0.0005 | – | – | – | – | –
[2], x2 = 0.8018 | 1.4077 ± 0.0005 | 1.4054 ± 0.0005 | 1.4038 ± 0.0005 | – | – | – | – | –
[2], x2 = 0.9048 | 1.4089 ± 0.0005 | 1.4067 ± 0.0005 | 1.4052 ± 0.0005 | – | – | – | – | –
